# Compound activity deposited in PubChem BioAssay by Broad Institute.
# MITF TRPM1 HTS = activators of MITF-driven TRPM1 promoter activity in SK-MEL-5 cells | SK-MEL-5 TRPM1-promoter luciferase, 24 h; % of positive control, neutral wells = 0 | actives 0.75% (n = 300,000) | AID 588334 | activation, % at 12.5 µM;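 active = mean activation of at least 80% with every replicate also reaching 80%; inconclusive = mean reaches 80% but some replicate falls short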;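 also: 0% = neutral control wells and 100% = parthenolide positive control wells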
# Yeast UUG start = modulators of start codon recognition fidelity in yeast; S. cerevisiae UUG-firefly luciferase reporter, luminescence/redox ratio; activity score, % at 18.7 µM; hit rate 0.13% among 350,000; AID 602363;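 active = replicate mean at a twofold rise or more, about +100% in these data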;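 note: firefly luciferase made from a UUG start codon reports start codon fidelity; reporter light over untreated wells divided by growth signal over untreated wells; some hits fall short of that in this replicate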
# miR-122 sensor = inhibitors of miR-122 in Huh7 cells; Huh7 miR-122 Renilla luciferase sensor, 48 h; neutral wells = 0, positive control = 100; activation (reporter increase), % at 12.5 µM; actives 0.3% (n = 340,000); AID 602342;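 active = mean replicate activation score at least 90 and every replicate individually at or above 90; inconclusive = only one of the two criteria met; inactive = neither criterion met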;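 also: higher luciferase means less miR-122 activity so hits act as miR-122 inhibitors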
# PGC1a acetyl inh = lowers PGC1a acetylation signal in U2OS cells. actives 0.17% (n = 350,000). AlphaScreen anti-acetyl-lysine; with virally co-expressed GCN5 acetyltransferase. AID 651687. inhibition, % at 15.6 µM;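 active = every replicate shows inhibition of at least 40%; inconclusive = mean inhibition at least 40% but some replicate below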;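 also: 0% = neutral control wells and 100% = positive control wells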
# Wnt act = activators of Wnt/beta-catenin signaling | Wnt/beta-catenin reporter cell assay, activator, plate reader | actives 1.2% (n = 300,000) | AID 743398 | activation, % at 9.35 µM; in the data active = activation above about 30%, passing the limit was not always enough; inconclusive = no clear call, values can overlap the other calls;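 also: 0% = neutral control wells and 100% = positive control wells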
# MITF TRPM1 inh = reduces MITF-dependent TRPM1 promoter luciferase signal | SK-MEL-5 TRPM1 promoter luciferase, 24 h | inhibition, % at 12.5 µM | actives 0.83% (n = 330,000);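 active = mean inhibition across replicates of 60% or more, whatever share of single replicates reaches that level; inconclusive = some that reach 60%, reason not given; inactive = mean inhibition across replicates below 60%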
# * = called active by the depositor; ? = inconclusive; / = no result given; [ ] = dose if it differs, or a comment. Rows were chosen to be rich in hits. Some 2.1% of all compounds tested hit in one or more screens of this group.
# Assay codes: A = MITF TRPM1 HTS; B = Yeast UUG start; C = miR-122 sensor; D = PGC1a acetyl inh; E = Wnt act; F = MITF TRPM1 inh
mol: N#CC(C#N)=C1C=CC=CN1/C(=C\c1ccccc1Cl)C(=O)c1ccccc1
  A: -75	B: /	C: /	D: /	E: -4	F: 77*

mol: Cc1noc(C)c1NC(=O)Nc1ccc2c(c1)C(=O)N([C@@H](C)CO)C[C@@H](C)[C@H](CN(C)C(=O)Nc1ccc3c(c1)OCO3)OCCCC[C@H](C)O2
  A: /	B: 4	C: 11[16.7 µM]	D: 6	E: /	F: /

mol: Cc1csc(N2CCN(c3cc4c(cc3Cl)nc(-c3ccncc3)n4CCCN3CCCC3)CC2)n1
  A: -89	B: 50	C: /	D: /	E: -6	F: 90*

mol: COc1ccc(CN(C)C[C@H]2Oc3c(NS(C)(=O)=O)cccc3C(=O)N([C@@H](C)CO)C[C@@H]2C)cc1
  A: /	B: /	C: 7[16.7 µM]	D: 1	E: /	F: /

mol: C[C@H](CO)N1C[C@H](C)[C@H](CN(C)Cc2ccncc2)Oc2ccc(NC(=O)c3ccncc3)cc2C1=O
  A: /	B: 42	C: 27[16.7 µM]	D: 1	E: /	F: /

mol: CCCC[C@@]1(C2CCCC2)Cc2cc(OCC(=O)O)c(Cl)c(Cl)c2C1=O
  A: 0	B: -17	C: -9	D: 95*	E: -1	F: -1

mol: C[C@]1(C2CCCC2)Cc2cc(OCC(=O)O)c(Cl)c(Cl)c2C1=O
  A: 0	B: 3	C: -2	D: 2	E: -3	F: 4

mol: CC(Oc1ccc(Cl)cc1Cl)c1nc(-c2ccc(NC(=O)c3cccnc3)cc2)no1 (stereo unspecified)
  A: 0	B: -15	C: -10	D: -88	E: /	F: 0

mol: CC(C)c1ccc(OCc2nc(-c3ccccn3)no2)c(Br)c1
  A: 79	B: -6	C: -2	D: -34	E: 76*	F: -76

mol: Cc1ccc(OCc2nc(-c3ccccn3)no2)c(Br)c1
  A: 16	B: -64	C: 0	D: 5	E: -2	F: -35

mol: CC(Oc1ccc(Cl)cc1Cl)c1nc(-c2ccccn2)no1 (stereo unspecified)
  A: 131*	B: -7	C: 0	D: -2	E: /	F: -136

mol: COc1ccc(NC(=O)Nc2cccc3c2O[C@H](CN(C)C(=O)Nc2ccccc2)[C@H](C)CN([C@H](C)CO)C3=O)cc1
  A: /	B: 13	C: 2[16.7 µM]	D: 1	E: /	F: /

mol: O=c1sc(/C=N/Nc2ccccc2)c(Cl)n1Cc1ccccc1
  A: 56	B: /	C: /	D: /	E: 46*	F: -54

mol: CC1C=NC(S(=O)(=O)N2CC[C@@H]3[C@H]2c2cc(-c4ccccc4)ccc2N(C)[C@H]3CO)=N1 (stereo partly specified)
  A: /	B: 9	C: 13[16.7 µM]	D: 2	E: /	F: /

mol: COc1cccc(-c2cnc(C(O)c3ccccc3)[nH]2)c1 (stereo unspecified)
  A: /	B: -34	C: 0	D: -4	E: 0	F: /

mol: COc1cccc(C(O)c2ncc(-c3cccc(F)c3)[nH]2)c1 (stereo unspecified)
  A: /	B: -10	C: 114*	D: 5	E: -2	F: /

mol: O=C(Cc1ccccc1)N1CC[C@@H]2[C@H]1c1cc(C#Cc3ccccc3)ccc1N[C@@H]2CO
  A: /	B: -29	C: -16[16.7 µM]	D: -64	E: /	F: /

mol: c1ccc2c(c1)oc1c(NCCCn3ccnc3)ncnc12
  A: -16	B: -7	C: -2	D: -6	E: /	F: 17

mol: O=c1c2ccccc2oc2ccc(NCCCn3ccnc3)cc12
  A: 43	B: -48	C: -4	D: 5	E: 34*	F: -39

mol: COc1ccc(C(=O)Cc2ccc3c(c2)OCO3)c(O)c1
  A: 77	B: /	C: /	D: /	E: 37*	F: -79

mol: COc1ccc(CCn2c(C)cc(C(=O)COC(=O)c3ccc(O)cc3O)c2C)cc1
  A: /	B: /	C: /	D: /	E: 2	F: /

mol: O=C(COC(=O)c1ccc(O)cc1)c1ccc2c(c1)OCCO2
  A: 79	B: -54	C: -6	D: -1	E: 38*	F: -83

mol: Cc1cc(C(=O)COC(=O)c2ccc(O)cc2O)c(C)n1C(C)C
  A: 85*	B: -10	C: /	D: /	E: 53*	F: -85

mol: O=C(COC(=O)c1ccc(O)cc1O)c1ccc2c(c1)OCO2
  A: 45	B: -36	C: 4	D: 5	E: 44*	F: -51

mol: C[C@@H]1CN([C@@H](C)CO)C(=O)c2cc(NC(=O)CCC(F)(F)F)ccc2O[C@@H](C)CCCCO[C@H]1CN(C)C(=O)C1CCCCC1
  A: /	B: 22	C: -4[16.7 µM]	D: 1	E: /	F: /

# Continuation.
# Assay codes: A = MITF TRPM1 HTS; B = Yeast UUG start; C = miR-122 sensor; D = PGC1a acetyl inh; E = Wnt act; F = MITF TRPM1 inh
mol: Cc1ccsc1C(=O)OCc1cc(=O)n2ccsc2n1
  A: 77	B: -15	C: -5	D: 6	E: 54*	F: -80

mol: COc1ccc(NS(=O)(=O)c2cc(Br)cc3c2N(C(C)=O)CC3)cc1
  A: -19	B: -18	C: 189*	D: 3	E: -3	F: 20

mol: COCC#Cc1cnc2c(c1)C(=O)N([C@H](C)CO)C[C@H](C)[C@H](CN(C)C(=O)Cc1ccncc1)O2
  A: /	B: 2	C: 2[16.7 µM]	D: 4	E: /	F: /

mol: O=C(c1ccccc1C(=O)N1CCN(c2ccc(F)cc2)CC1)N1CCN(c2ccc(F)cc2)CC1
  A: /	B: 6	C: -1	D: /	E: /	F: 15

mol: CS(=O)(=O)c1ccc(-c2sc3ccccc3c2C(=O)N2CCN(c3ccc(F)cc3)CC2)cc1
  A: 94*	B: 10	C: -1	D: 0	E: 45*	F: -89

mol: CC(C)CC#Cc1ccc2c(c1)O[C@H](CN(C)C(=O)C1CCCCC1)[C@H](C)CN([C@@H](C)CO)S2(=O)=O
  A: /	B: -12	C: -12[16.7 µM]	D: 10	E: /	F: /

mol: O=C(Nc1cccc(Cl)c1)O/N=C\c1ccncc1
  A: -11	B: -14	C: 2	D: -13	E: -1	F: 13

mol: Clc1cccc(N/N=C/c2ccncc2)c1
  A: 101*	B: 13	C: 8	D: -10	E: 9	F: -90

mol: CCCCCCCCNC(C)C(O)c1ccc(SC(C)C)cc1 (stereo unspecified)
  A: -83	B: 12	C: 1	D: /	E: 1	F: 83*

mol: Oc1cc(NCc2cccnc2)ccc1-c1nc2ccccc2o1
  A: /	B: -25	C: 14	D: -8	E: 86*	F: -60

mol: Oc1ccc(-c2nnc(-c3ccc(O)cc3)nn2)cc1
  A: /	B: -48	C: -4	D: -74	E: 77*	F: -55

mol: Oc1ccc(-c2cc(-c3ccc(O)cc3)nc(-c3ccccc3)n2)cc1
  A: 5	B: -5	C: -6	D: -1	E: 2	F: 1

mol: CCC(=O)Nc1ccc2c(c1)OC[C@H](C)N(CCc1ccccc1)C[C@@H](C)[C@@H](OC)CN(C)C2=O
  A: /	B: /	C: /	D: -11	E: /	F: /

mol: Cc1cc(N2CCN(C)CC2)ccc1NC(=O)c1c2c(nc3ccccc13)CCN(Cc1ccccc1)C2
  A: -88	B: /	C: /	D: 69*	E: /	F: 87*

mol: O=C(NC1CCCCCC1)c1c2c(nc3ccccc13)CCN(Cc1ccccc1)C2
  A: -9	B: /	C: /	D: /	E: -9	F: 7

mol: CC1(C)CC(/C=C/c2ccccc2)=Nc2ccccc2N1
  A: 95*	B: /	C: /	D: 11	E: -5	F: -90

mol: CC(C)=NOc1cc(NC(=O)CCl)cc([N+](=O)[O-])c1
  A: -87	B: /	C: /	D: /	E: 0	F: 87*

mol: O=C(CCl)Nc1cc(SCC(O)CO)cc([N+](=O)[O-])c1 (stereo unspecified)
  A: -88	B: /	C: /	D: 53*	E: 1	F: 89*

mol: O=C(Nc1ccccc1)N[C@@H]1CC[C@@H](CCNS(=O)(=O)c2cccc(F)c2)O[C@H]1CO
  A: /	B: 20	C: /	D: 3	E: /	F: /

mol: O=C(c1ccc(Cl)cc1)c1cnc(Nc2ccccc2Cl)s1
  A: 99*	B: -19	C: 0	D: /	E: /	F: -96

mol: O=C(c1ccc(Cl)cc1)c1cnc(-c2ccccc2)s1
  A: /	B: -19	C: -11	D: 6	E: /	F: -26

mol: Cc1ccc(-c2cc(N)n(-c3ccccc3)n2)cc1
  A: 93*	B: -21	C: 0	D: -2	E: /	F: -82

mol: Cc1cccc(-c2cnn(-c3ccccc3)c2N)c1
  A: ?	B: -29	C: /	D: 2	E: 24	F: -76

mol: Cc1cccc(-c2cc(N)n(-c3ccccc3)n2)c1
  A: 87*	B: -27	C: -1	D: 7	E: -1	F: -86

# Gathered by group: the entries above containing an aryl thioether with sulfur outside any ring.
# Assay codes: A = MITF TRPM1 HTS; B = Yeast UUG start; C = miR-122 sensor; D = PGC1a acetyl inh; E = Wnt act; F = MITF TRPM1 inh
mol: CCCCCCCCNC(C)C(O)c1ccc(SC(C)C)cc1 (stereo unspecified)
  A: -83	B: 12	C: 1	D: /	E: 1	F: 83*

mol: O=C(CCl)Nc1cc(SCC(O)CO)cc([N+](=O)[O-])c1 (stereo unspecified)
  A: -88	B: /	C: /	D: 53*	E: 1	F: 89*

# 3 of the entries above in order of their number in PGC1a acetyl inh, falling.
# Assay codes: A = MITF TRPM1 HTS; B = Yeast UUG start; C = miR-122 sensor; D = PGC1a acetyl inh; E = Wnt act; F = MITF TRPM1 inh
mol: CC1(C)CC(/C=C/c2ccccc2)=Nc2ccccc2N1
  A: 95*	B: /	C: /	D: 11	E: -5	F: -90

mol: Cc1ccc(-c2cc(N)n(-c3ccccc3)n2)cc1
  A: 93*	B: -21	C: 0	D: -2	E: /	F: -82

mol: Oc1cc(NCc2cccnc2)ccc1-c1nc2ccccc2o1
  A: /	B: -25	C: 14	D: -8	E: 86*	F: -60
